Data: ChEMBL document CHEMBL1135740, “Design, synthesis, and activity of a novel series of factor Xa inhibitors: optimization of arylamidine groups” (J Med Chem, 2002)

Chains of the proteins cited; added tags and fusions are not shown. Residues count along the entry.
UniProt P00742, 41-179 limits assumed: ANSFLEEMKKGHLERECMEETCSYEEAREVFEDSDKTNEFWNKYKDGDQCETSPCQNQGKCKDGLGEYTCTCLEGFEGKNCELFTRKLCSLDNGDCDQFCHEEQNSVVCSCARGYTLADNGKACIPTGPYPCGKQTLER
UniProt P00742, 235-488 limits assumed: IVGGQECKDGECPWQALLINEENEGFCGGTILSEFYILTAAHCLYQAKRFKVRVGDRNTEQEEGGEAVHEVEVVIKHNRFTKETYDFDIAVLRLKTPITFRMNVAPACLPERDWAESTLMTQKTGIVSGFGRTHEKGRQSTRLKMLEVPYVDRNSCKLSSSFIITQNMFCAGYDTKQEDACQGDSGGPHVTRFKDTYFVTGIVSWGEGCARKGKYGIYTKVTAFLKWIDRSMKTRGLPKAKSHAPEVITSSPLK

Target: Coagulation factor X (Homo sapiens, UniProt P00742)
Test: Inhibitory constant against human coagulation factor Xa (fXa)

With `Cc1c(F)c(Oc2cccc(C(=N)N)c2)nc(Oc2cc(N(C)C)ccc2C(=O)O)c1F` the Ki was 2.4 µM.
